Results taken from patent publication US8772449B2, “Cell-penetrating peptides” (Toray Industries, Inc., priority 2009, dated 2014).

Assay: Intranasal administration of insulin with peptide to rats (blood glucose, plasma insulin, bioavailability, AUC)
Settings: Example 4, insulin 1 IU/kg alone or mixed with 0.5 mM peptide (L-body), male SD rat, FIG. 5

Substance: insulin
- blood insulin level after intranasal administration: increase in the blood insulin level could be hardly confirmed
